According to paper PMC6508583 (Journal of the American Chemical Society, 2019):

Test system: Mycobacterium smegmatis A1408G mutant

CCC[C@H]1[C@H](O)[C@@H](N)[C@@H](O[C@H]2[C@H](O[C@@H]3O[C@H](CO)[C@@H](O[C@H]4O[C@@H](CN)[C@@H](O)[C@H](O)[C@H]4N)[C@H]3O)[C@@H](O)[C@H](N)C[C@@H]2N)O[C@@H]1CO [Compound 5, 4’-deoxy-4’-propylparomomycin]
Antibacterial activity (MIC) A1408G mutant M. smegmatis (A1408G mutant): 16 to 32 µg/mL | Activity Loss = MIC Mutant/MIC wild-type (M. smegmatis A1408G vs wild-type): 100–200
